Results taken from ChEMBL document CHEMBL1140824, “Hepatoselectivity of statins: design and synthesis of 4-sulfamoyl pyrroles as HMG-CoA reductase inhibitors” (Bioorg Med Chem Lett, 2008).

What was measured:
[1] = target: T1, 3-hydroxy-3-methylglutaryl-coenzyme A reductase (Rattus norvegicus, UniProt P51639); assay: Inhibition of rat microsomal HMGCoA reductase
T1 sequence (P51639 whole entry): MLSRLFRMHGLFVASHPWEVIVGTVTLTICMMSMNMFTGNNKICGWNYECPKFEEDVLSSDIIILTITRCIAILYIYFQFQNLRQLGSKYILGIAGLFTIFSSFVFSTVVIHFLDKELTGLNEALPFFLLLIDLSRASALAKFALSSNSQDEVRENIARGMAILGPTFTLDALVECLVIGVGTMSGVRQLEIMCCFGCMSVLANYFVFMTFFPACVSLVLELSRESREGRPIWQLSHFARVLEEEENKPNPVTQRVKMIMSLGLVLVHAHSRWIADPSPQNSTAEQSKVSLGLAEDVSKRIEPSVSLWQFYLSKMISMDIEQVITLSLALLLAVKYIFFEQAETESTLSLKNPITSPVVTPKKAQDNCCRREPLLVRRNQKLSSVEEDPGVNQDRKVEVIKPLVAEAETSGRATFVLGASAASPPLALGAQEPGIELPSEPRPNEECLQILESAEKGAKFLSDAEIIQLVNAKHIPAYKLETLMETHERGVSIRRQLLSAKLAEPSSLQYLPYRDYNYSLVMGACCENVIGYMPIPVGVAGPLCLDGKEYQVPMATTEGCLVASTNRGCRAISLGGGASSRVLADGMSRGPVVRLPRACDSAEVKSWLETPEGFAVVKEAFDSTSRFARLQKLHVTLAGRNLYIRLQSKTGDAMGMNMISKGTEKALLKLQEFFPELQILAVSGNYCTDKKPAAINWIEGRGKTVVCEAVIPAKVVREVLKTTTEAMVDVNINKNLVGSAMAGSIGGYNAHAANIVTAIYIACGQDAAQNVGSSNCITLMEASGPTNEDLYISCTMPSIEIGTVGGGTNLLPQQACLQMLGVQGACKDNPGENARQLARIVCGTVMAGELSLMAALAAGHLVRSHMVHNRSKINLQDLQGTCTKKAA

Hepatocyte = assay: Selectivity, ratio of IC50 for rat L6 myocyte to IC50 for rat hepatocyte; type: functional

CC(C)c1c(C(=O)Nc2ccccc2)c(-c2ccccc2)c(-c2ccc(F)cc2)n1CC[C@@H](O)C[C@@H](O)CC(=O)O [ATORVASTATIN]
IC50 [1]: 3.8 nM
Ratio IC50 (Hepatocyte): 144
